Experimental data as given in ChEMBL document CHEMBL4831556, “Discovery of a Novel Potent and Selective Calcium Release-Activated Calcium Channel Inhibitor: 2,6-Difluoro-N-(2'-methyl-3'-(4-methyl-5-oxo-4,5-dihydro-1,3,4-oxadiazol-2-yl)-[1,1'-biphenyl]-4-yl)benzamide. Structure-Activity Relationship and Preclinical Characterization” (J Med Chem, 2021).

Sequences of proteins named here, by UniProt entry; tags and fusion partners are left off. A change or cut given only in a name is not applied to a line headed by its entry.
UniProt Q00653: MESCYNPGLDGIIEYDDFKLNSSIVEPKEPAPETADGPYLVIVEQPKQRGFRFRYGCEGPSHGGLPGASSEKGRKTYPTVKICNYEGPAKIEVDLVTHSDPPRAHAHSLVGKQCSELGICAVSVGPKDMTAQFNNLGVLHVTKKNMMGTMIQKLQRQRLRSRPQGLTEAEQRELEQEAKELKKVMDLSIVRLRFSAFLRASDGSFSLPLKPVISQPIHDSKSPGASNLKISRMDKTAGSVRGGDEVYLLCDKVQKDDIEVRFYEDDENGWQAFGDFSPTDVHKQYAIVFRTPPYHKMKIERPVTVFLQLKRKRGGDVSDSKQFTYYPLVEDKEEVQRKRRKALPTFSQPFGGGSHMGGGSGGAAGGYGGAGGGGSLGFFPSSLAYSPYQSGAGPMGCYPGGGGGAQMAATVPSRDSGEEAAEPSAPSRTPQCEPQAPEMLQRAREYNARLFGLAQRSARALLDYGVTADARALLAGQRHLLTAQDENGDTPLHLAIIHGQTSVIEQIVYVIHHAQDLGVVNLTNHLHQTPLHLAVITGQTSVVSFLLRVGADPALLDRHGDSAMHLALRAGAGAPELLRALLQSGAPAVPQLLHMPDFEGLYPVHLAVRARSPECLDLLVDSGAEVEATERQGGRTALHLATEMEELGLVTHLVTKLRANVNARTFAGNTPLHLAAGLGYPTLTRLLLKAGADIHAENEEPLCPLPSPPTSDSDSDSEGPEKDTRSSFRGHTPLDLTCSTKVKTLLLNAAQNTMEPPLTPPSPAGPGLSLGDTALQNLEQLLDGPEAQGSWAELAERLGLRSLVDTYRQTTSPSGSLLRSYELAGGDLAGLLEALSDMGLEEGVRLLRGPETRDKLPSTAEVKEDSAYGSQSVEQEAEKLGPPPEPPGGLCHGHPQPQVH
UniProt P19838: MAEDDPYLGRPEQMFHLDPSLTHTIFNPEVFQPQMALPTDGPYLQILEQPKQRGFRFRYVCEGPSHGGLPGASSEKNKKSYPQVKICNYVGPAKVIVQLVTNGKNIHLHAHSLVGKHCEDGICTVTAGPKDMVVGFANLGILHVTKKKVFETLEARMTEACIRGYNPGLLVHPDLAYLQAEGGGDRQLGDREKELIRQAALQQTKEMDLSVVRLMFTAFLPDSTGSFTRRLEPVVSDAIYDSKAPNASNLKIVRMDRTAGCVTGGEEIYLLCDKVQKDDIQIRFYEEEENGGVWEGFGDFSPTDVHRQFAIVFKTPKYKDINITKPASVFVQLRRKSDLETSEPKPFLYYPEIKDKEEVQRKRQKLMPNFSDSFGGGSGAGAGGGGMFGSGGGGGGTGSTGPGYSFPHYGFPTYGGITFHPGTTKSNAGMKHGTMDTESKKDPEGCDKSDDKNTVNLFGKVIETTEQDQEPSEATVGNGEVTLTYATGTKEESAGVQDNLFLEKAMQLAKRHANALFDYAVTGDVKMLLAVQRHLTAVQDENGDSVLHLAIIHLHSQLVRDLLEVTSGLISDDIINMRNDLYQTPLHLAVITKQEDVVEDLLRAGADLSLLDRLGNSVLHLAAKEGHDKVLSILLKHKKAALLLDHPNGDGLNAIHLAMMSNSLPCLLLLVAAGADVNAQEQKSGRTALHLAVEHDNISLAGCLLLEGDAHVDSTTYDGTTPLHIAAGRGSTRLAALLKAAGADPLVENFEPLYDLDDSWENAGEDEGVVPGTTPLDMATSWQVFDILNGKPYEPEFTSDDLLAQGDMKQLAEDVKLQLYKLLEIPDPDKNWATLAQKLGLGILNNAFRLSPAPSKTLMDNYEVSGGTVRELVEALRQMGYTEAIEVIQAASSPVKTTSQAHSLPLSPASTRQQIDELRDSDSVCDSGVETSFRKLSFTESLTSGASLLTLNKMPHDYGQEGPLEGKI
UniProt Q04206, whole entry, looked up: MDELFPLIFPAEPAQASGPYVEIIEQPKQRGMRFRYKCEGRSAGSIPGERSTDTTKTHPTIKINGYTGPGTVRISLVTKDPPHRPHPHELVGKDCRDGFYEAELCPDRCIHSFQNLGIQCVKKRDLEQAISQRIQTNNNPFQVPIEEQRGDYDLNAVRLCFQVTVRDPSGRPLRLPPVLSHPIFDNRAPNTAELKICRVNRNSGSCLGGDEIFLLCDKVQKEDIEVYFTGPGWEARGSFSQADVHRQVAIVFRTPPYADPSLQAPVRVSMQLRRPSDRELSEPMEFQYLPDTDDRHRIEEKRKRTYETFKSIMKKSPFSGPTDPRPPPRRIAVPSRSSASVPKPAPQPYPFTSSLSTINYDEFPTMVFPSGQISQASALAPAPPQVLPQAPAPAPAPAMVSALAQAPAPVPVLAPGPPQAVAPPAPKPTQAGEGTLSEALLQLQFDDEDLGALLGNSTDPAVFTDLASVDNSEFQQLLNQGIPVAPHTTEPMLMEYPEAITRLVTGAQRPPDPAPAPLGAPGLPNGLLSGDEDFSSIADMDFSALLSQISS

Target: Nuclear factor NF-kappa-B complex (Homo sapiens) (UniProt Q00653+P19838+Q04206)
Test: Inhibition of NF-kappaB (unknown origin) at 10 uM relative to control
Type: protein-complex assay

Structure (SMILES)	inhibition [%]
Cc1c(-c2ccc(NC(=O)c3c(F)cccc3Cl)cc2)cccc1-c1nn(C)c(=O)o1	5
Cc1c(-c2ccc(NC(=O)c3c(F)cccc3F)cc2)cccc1-c1nn(C)c(=O)o1	8
